{"sequences": {"note": "Sequences of proteins named here, by UniProt entry; tags and fusion partners are left off.", "UniProt Q07869, whole entry, species assumed": "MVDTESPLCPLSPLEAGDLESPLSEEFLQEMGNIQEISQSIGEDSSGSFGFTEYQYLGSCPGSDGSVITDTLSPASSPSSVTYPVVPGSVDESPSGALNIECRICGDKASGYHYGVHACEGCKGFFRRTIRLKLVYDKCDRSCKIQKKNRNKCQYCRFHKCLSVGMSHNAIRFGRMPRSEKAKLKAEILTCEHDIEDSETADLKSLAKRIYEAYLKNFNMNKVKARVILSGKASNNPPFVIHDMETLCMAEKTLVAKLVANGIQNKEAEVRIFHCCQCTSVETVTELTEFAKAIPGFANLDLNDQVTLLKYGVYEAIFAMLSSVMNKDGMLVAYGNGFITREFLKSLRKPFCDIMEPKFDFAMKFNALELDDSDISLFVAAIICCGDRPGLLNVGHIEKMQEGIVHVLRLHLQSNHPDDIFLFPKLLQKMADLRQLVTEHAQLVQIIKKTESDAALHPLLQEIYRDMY"}, "source": "patent US9346770B2", "about": "“Compounds having activating effect on subtypes of peroxisome proliferator-activated receptors and its preparation method and uses” (ZHEJIANG HISUN PHARMACEUTICAL CO., LTD., priority 2010, dated 2016)", "target": "PPARα (Homo sapiens (Human), UniProt Q07869)", "assay": "Nuclear receptor reporter gene (luciferase) screening model, PPARα activation in HepG2 cells", "assay_type": "cell-based", "set-up": "key: Ia: in-activated", "source_text": "Using a reporter gene method, a screening model for screening a nuclear receptor agonist in living cells is designed on the basis of the principal that a nuclear receptor can activate transcription of its downstream gene after being activated. A reporter gene plasmid is constructed, in which the DNA binding sequence for the nuclear receptor (NRE) is inserted at the upstream of a luciferase gene, such that the expression of the luciferase gene is regulated by the nuclear receptor. The reporter gene plasmid is transferred into a cell simultaneously with the nuclear receptor. The nuclear receptor will be activated when a nuclear receptor agonist presents in the cell culture medium. The receptor being activated can induce the expression of the luciferase gene, while the amount of generated luciferase can be determined with its luminescent substrate. In this way, the intensity of activation of the nuclear receptor by the compound can be determined by observing the luminescence intensity. For the calibration of the experimental error caused by factors such as transfection efficiency, amount of inoculated cells, toxicity of the compound, etc, a GFP plasmid is co-transfected simultaneously as the internal reference. […] The experimental results are expressed as relative activation fold, with a value of 1 for the solvent control. […]", "data": [{"smiles": "CN(CCOc1ccc(CC2SC(=O)NC2=O)cc1)c1ccccn1", "note": "(stereo not shown) [rosiglitazone, reference compound]", "values": [{"measurement": "EC50 PPARα", "result": "Ia"}]}]}
